Biological target: T1, Histone deacetylase 2b (Zea mays, UniProt Q94F81)
T1 sequence (Q94F81 whole entry): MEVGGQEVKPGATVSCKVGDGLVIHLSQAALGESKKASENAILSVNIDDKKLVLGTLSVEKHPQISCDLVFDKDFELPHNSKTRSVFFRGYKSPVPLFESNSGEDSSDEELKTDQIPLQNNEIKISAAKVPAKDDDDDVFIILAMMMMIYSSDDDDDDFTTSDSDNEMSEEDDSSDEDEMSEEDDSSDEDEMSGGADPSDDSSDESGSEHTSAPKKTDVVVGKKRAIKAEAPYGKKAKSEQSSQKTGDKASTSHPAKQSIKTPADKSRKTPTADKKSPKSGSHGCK
Assay: Inhibition of in vitro enzyme activity measured in a highly purified maize Histone deacetylase 2 preparation

IC50: 3 nM
SMILES: CC(=CC(C)C=CC(=O)NO)C(=O)c1ccc(N(C)C)cc1 (stereo unspecified)
